Chains of the proteins cited; added tags and fusions are not shown.
UniProt Q07817, whole entry: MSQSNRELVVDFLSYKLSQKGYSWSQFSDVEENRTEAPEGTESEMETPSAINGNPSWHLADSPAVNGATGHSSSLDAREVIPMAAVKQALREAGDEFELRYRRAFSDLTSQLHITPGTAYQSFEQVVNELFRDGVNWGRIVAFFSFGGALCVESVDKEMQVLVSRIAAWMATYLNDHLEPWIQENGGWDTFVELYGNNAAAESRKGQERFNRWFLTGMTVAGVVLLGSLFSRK
UniProt P10415, whole entry: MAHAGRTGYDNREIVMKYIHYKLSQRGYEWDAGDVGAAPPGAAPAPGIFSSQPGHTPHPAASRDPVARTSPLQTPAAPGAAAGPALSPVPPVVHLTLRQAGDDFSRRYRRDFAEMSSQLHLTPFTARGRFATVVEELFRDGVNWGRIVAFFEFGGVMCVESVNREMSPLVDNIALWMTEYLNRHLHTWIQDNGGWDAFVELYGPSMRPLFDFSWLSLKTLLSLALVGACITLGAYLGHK

In ChEMBL document CHEMBL3425420 (J Med Chem, 2015):

The compounds below were run against Bcl-2-like protein 1 (Homo sapiens, UniProt Q07817) (assay: Displacement of FITC-Bak-BH3 peptide from Bcl-xL (unknown origin) incubated for 1.5 hrs by FPA competition assay).
Outline: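 4 nM Bcl-xL with 10 nM FITC-Bak-BH3 peptide in 20 mM TRIS pH 7.5, 50 mM NaCl, 3 mM DTT, 5% final DMSO. Compounds were added as a 10-point, 3-fold serial dilution and incubated 1.5 h at room temperature. IC50 came from a four-parameter fit of the anisotropy change, was converted to Ki, and duplicate values were averaged.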

Compound | Ki [µM]
O=C(O)c1c(CCOc2cccc3ccccc23)c2cccc3c2n1CCS3 | 9
Cc1cc(OCCCc2c(C(=O)O)n3c4c(cccc24)CCC3)cc(C)c1Cl | 7.8

The compounds below were run against Apoptosis regulator Bcl-2 (Homo sapiens, UniProt P10415) (assay: Displacement of FITC-Bak-BH3 peptide from Bcl-2 (unknown origin) incubated for 1.5 hrs by FPA competition assay).
Outline: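 Compounds were added as a 10-point, 3-fold serial dilution and incubated 1.5 h at room temperature. The anisotropy change was fitted to a four-parameter variable-slope curve for IC50, converted to Ki, and duplicates were averaged.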

Compound | Ki [µM]
Cc1cc(OCCCc2c(C(=O)O)n3c4c(cccc24)SCCC3)cc(C)c1Cl | 3.7
O=C(O)c1c(CCCOc2cccc3ccccc23)c2cccc3c2n1CCO3 | 5.7
Cc1cc(OCCCc2c(C(=O)O)n3c4c(c(Cl)ccc24)OCC3)cc(C)c1Cl | 1.3
O=C(O)c1c(CCCOc2cccc3c2CCCC3)c2cccc3c2n1CCS3 | 3.7
O=C(O)c1c(CCCOc2cccc3ccccc23)c2cccc3c2n1CCC3 | 7.3
Cc1cc(OCCCc2c(C(=O)O)n3c4c(c(Cl)ccc24)CCC3)cc(C)c1Cl | 0.77
